Data taken from patent US10087260B2, “Anti-HER2 antibody and conjugate thereof” (REMEGEN, LTD., priority 2013, dated 2018).

Target: T1, HER2-ECD (Homo sapiens, UniProt P04626)
T1 construct: made in house; host or cells: HEK293
Assay: Affinity assay of ADC by ELISA
Assay type: binding
Conditions: ELISA on coated HER2-ECD; molar equivalent of affinity

Substance: T-DM1
- Kd: 0.0152 nM
